What is called EC50 is the concentration at which the effect is half-maximal. Higher therefore signals a need for much substance.

Sequences of proteins named here, by UniProt entry; tags and fusion partners are left off.
UniProt Q8BLA8, whole entry: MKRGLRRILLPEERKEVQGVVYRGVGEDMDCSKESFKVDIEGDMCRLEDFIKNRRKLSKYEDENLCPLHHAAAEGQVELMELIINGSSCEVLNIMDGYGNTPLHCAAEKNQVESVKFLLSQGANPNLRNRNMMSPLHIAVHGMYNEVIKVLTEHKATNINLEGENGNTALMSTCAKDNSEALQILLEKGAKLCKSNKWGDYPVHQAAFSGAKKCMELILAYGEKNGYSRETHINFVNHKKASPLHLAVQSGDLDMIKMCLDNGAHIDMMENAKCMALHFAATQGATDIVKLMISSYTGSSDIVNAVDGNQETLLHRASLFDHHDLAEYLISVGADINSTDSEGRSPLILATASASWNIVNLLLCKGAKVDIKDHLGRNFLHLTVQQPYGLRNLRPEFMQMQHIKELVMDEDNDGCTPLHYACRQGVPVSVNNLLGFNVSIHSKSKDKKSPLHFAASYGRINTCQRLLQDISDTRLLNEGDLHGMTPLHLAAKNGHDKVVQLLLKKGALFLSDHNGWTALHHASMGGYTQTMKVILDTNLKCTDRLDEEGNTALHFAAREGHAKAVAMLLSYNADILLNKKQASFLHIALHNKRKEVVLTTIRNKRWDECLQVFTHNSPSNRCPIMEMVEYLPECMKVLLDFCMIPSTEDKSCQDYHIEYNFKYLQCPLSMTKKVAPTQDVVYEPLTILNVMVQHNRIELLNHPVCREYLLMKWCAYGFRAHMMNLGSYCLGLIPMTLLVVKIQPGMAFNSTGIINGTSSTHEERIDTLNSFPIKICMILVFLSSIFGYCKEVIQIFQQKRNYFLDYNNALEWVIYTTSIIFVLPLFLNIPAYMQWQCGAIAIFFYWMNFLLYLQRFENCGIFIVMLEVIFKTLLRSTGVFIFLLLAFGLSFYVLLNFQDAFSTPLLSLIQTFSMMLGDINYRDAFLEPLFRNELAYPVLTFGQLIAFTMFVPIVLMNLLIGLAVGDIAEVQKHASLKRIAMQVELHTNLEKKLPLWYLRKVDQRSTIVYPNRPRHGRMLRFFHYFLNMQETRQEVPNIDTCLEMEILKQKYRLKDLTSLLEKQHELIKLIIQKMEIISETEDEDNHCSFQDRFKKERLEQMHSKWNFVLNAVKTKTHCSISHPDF

From paper PMC3130079 (2011) come the findings set out here.

The experiment addresses TRPA1 (Mus musculus, UniProt Q8BLA8). As to the kind of experiment: cell-based.

Turning to `Cc1c(C(=O)NN2CCCCC2)nn(-c2ccc(Cl)cc2Cl)c1-c1ccc(I)cc1` [AM251], the EC50 is ~21 µM.
